{"source": "patent US7087373B2", "about": "“Methods for determining plasma free drug concentration by direct measurement of binding affinity of protease inhibitors to plasma proteins” (priority 2001, dated 2006)", "key": {"[1]": {"tested_on": "AAG (human α1-acid glycoprotein)", "test": "Isothermal titration calorimetry (ITC) of PI binding to AAG", "protocol": "Briefly, the isothermal titration calorimetry (ITC) measurements are designed to obtain primarily the enthalpy of each complex formation and their stoichiometries. The heats of each reaction are determined by integration of the peaks observed. After the contribution from the heat of dilution of each injection is subtracted, the heat is plotted against the molar ratio of PIs to AAG. The binding constant (Ka), enthalpy of binding (ΔH^0), and stoichiometry (N) of the formation of complex are determined by fitting the binding isotherm against the binding equation using an independent binding model. Data analysis may be carried out with, for example, MicroCal ORIGN software, usually provided with the instrument.\nBinding experiments were run using Isothermal Titration Calorimetry (ITC) to measure bound and unbound protease inhibitors.\nSample preparation: Solutions of AAG and its variants for ITC experiments were made up in 20 mM […] buffer, pH 7.4. All compounds were prepared as stock solution of 20 mM or 25 mM in DMSO and thereafter diluted to desired concentration in the same buffer. For all ITC experiments, the percentage of DMSO is below 1%. […]\nThe values provided are the average of duplicate experiments. […] The ΔS^0 function was calculated from the standard thermodynamic relation ΔG^0=ΔH^0−TΔS^0."}, "HIV": {"tested_on": "HIV", "test": "Cell-based anti-HIV assay (tetrazolium-based, Pauwels et al.) in the absence of AAG and in the presence of 1 mg/mL AAG", "conditions": "change in experimental EC50, absence of AAG vs presence of 1 mg/mL AAG", "protocol": "The values provided are the average of duplicate experiments. […] The standard free energies (ΔG^0) were obtained from the equation ΔG^0=−RT1nKa, in which the Ka is the binding constant at 37° C. The ΔS^0 function was calculated from the standard thermodynamic relation ΔG^0=ΔH^0−TΔS^0. […] Methods, 1988, 20(4), 309–21."}}, "data": [{"smiles": "CC(C)CN(C[C@@H](O)[C@H](Cc1ccccc1)NC(=O)O[C@H]1CCOC1)S(=O)(=O)c1ccc(N)cc1", "note": "[APV, amprenavir]", "values": [{"measurement": "Ka (binding constant, curve fit)", "setting": "[1]; 80 μM PI into 12 μM AAG", "value": "1.49(±0.20)×10^6 M^−1"}, {"measurement": "Ka", "setting": "[1]; binding to AAG, 37° C., 20 mM phosphate buffer, pH 7.4, average of duplicate experiments", "value": "1.49 ± 0.20 10^6M^−1"}, {"measurement": "Fold Inc. EC50", "setting": "HIV", "value": 23.7}]}]}
